The structures appear in SMILES notation. This is a selection; strong and weak results do not stand in their true shares. Calls of active or inactive are those of the source.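 The calls were made as follows: active = percent inhibition above a per-plate cutoff, the plate mean of test compounds plus 3 SD (cut at about 30% in these data); inactive = the rest.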

The chains behind the UniProt entries cited, without tags or fusion partners.
UniProt Q17339, whole entry: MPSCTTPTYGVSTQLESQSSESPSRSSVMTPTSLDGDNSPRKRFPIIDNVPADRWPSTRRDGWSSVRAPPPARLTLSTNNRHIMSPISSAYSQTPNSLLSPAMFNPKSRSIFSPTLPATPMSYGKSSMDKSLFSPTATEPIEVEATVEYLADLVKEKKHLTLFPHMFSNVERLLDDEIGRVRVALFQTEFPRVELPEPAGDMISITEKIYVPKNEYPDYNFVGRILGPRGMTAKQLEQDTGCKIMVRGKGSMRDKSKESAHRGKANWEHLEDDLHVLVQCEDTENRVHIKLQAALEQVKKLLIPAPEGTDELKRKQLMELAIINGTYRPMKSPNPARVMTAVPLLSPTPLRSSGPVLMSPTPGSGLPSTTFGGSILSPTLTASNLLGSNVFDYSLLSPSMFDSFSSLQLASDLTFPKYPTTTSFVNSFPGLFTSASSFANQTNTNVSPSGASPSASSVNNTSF

This experiment deals with Female germline-specific tumor suppressor gld-1 (Caenorhabditis elegans) (UniProt Q17339). The experiment can be described thus: small molecules blocking C. elegans GLD-1 RNA recognition – biochemical, fluorescence polarization, primary screen (AID 2280).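 Also: 0% = DMSO wells with GLD-1 and probe and 100% = wells lacking GLD-1.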 The conditions noted are these: purified GLD-1 + fluorescein TGE RNA, at 5.96 µM, active compounds read high.
As for `CCC(=O)N(c1ccccc1)C1(COC)CCN(CCn2nnn(CC)c2=O)CC1`, the inhibition was inactive: -2.51%.

For `CCC(=O)N(c1ccccc1)C1(COC)CCN(CCc2cccs2)CC1`, the inhibition is inactive: -3.21%.

Values taken from PubChem BioAssay AID2280 (The Scripps Research Institute Molecular Screening Center, 2010).
